Experimental data published in article PMC12010006, “Subnanomolar MAS-related G protein-coupled receptor-X2/B2 antagonists with efficacy in human mast cells and disease models” (Signal Transduction and Targeted Therapy, 2025).

Biological target: T1, MRGPRX2 (Homo sapiens, UniProt Q96LB1)
T1 sequence (Q96LB1 1-330): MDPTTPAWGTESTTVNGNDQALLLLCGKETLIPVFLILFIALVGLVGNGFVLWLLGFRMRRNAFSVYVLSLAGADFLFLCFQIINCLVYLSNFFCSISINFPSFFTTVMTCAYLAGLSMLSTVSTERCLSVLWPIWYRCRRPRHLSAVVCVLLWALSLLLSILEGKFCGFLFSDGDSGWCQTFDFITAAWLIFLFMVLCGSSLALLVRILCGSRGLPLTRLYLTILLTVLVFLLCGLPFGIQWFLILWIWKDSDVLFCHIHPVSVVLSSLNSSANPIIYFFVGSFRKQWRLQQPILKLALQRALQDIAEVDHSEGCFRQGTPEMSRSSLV
Assay: β-arrestin recruitment assay (antagonist mode), β-arrestin-CHO cells recombinantly expressing MRGPRX2
Format: cell-based
Set-up: expressed in transfected cells

EC80 of agonist, β-arrestin assay: 3000 nM
Substance: SP: peptide agonist substance P [reference compound]
